Results as given in patent US10456414B2, “Methods for treating HCV” (priority 2011, dated 2019).

Experiments:
[1] = tested on: 1b Huh-luc replicon cells; assay: Antiviral combination studies with Compound 5, MacSynergy II; type: cell-based, HCV; settings: in combination with Compound 5
genotype 1b replicon RNA = assay: Replicon RNA suppression, 6 day assay, QRT-PCR; settings: Compound 6 at 4 pM, Compound 4 at 1000 nM, Compound 1 at 10 nM, Compound 3 at 26.25 nM; 6 days; relative to DMSO control (Table XV)
[2] = tested on: HCV genotype 1b replicon cells (Huh-luc); assay: EC50 determination in Huh-luc replicon cells (Biological Example 1); type: cell-based; settings: Hepatitis C virus, 72 h, 3 days, average ± standard deviation
Description: Compounds 1 and 2 were serially diluted 1:3 in 100% DMSO (Sigma). These serial dilutions were added to the cells at a 1:200 dilution to achieve a final concentration of 0.5% DMSO in a total volume of 200 μL. […] EC50 values were calculated from the resulting equations as described previously (Delaney, W. E., et al., Antimicrobial Agents Chemotherapy, 45(6):1705-1713 (2001)).

[3] = tested on: HCV genotype 1b replicon cells (Huh-luc); assay: EC50 determination in Huh-luc replicon cells (Biological Example 2); type: cell-based; settings: Hepatitis C virus, 72 h, 3 days, average ± standard deviation
Description: Compounds were serially diluted 1:3 in 100% DMSO (Sigma). These serial dilutions were added to the cells at a 1:200 dilution to achieve a final concentration of 0.5% DMSO in a total volume of 200 μL. […] EC50 values were calculated from the resulting equations as described previously.

[4] = tested on: HCV genotype 1b replicon cells (Huh-luc); assay: Antiviral activity assay in HCV Huh-luc replicon cells (Biological Example 5); type: cell-based; settings: Hepatitis C virus, 72 h, 3 days, arithmetic mean ± standard deviation
Description: Serial dilutions were added to the cells at a 1:200 dilution to achieve a final concentration of 0.5% DMSO in a total volume of 200 μL.
EC50 values were calculated by nonlinear regression analysis of replicate data sets using XLfit 4 software (IDBS, Emeryville, Calif.).

| Structure (SMILES) | Interaction [1] | Replicon RNA log drop (genotype 1b replicon RNA) [log] | EC50 [2] [nM] | EC50 [3] [nM] | EC50 [4] [nM] |
| --- | --- | --- | --- | --- | --- |
| CC(C)OC(=O)[C@H](C)N[P@](=O)(OC[C@H]1O[C@@](C#N)(c2ccc3c(N)ncnn23)[C@](C)(O)[C@@H]1OC(=O)C(C)C)Oc1ccccc1 [Compound 4] | Minor synergy (Minor synergy if volumes are >25 and <50 nM^2) | −1.2 | – | – | – |
| Fc1ccccc1-c1nc2ccn(Cc3ccc(-c4ccc(C(F)(F)F)cc4C(F)(F)F)nn3)cc-2n1 [Compound 1, 5-((6-(2,4-bis(trifluoromethyl)phenyl)pyridazin-3-yl)methyl)-2-(2-fluorophenyl)-5H-imidazo[4,5-c]pyridine] | Moderate synergy (Moderate synergy if volumes are >50 and ≤100 nM^2) | – | 3 ± 2 | 0.4 ± 0.14 | 0.96 ± 0.39 |
| COC(=O)N[C@H](C(=O)N1CC2(CC2)C[C@H]1c1ncc(-c2ccc3c(c2)C(F)(F)c2cc(-c4ccc5nc([C@@H]6[C@H]7CC[C@H](C7)N6C(=O)[C@@H](NC(=O)OC)C(C)C)[nH]c5c4)ccc2-3)[nH]1)C(C)C [Compound 6, (1-{3-[6-(9,9-Difluoro-7-{2-[5-(2-methoxycarbonylamino-3-methyl-butyryl)-5-aza-spiro[2.4]hept-6-yl]-3H-imidazol-4-yl}-9H-fluoren-2-yl)-1H-benzoimidazol-2-yl]-2-aza-bicyclo[2.2.1]heptane-2-carbonyl}-2-methyl-propyl)-carbamic acid methyl ester] | Minor synergy (Minor synergy if volumes are >25 and <50 nM^2) | – | – | – | 0.0018 ± 0.0007 |
| COc1ccc2c(O[C@@H]3C[C@H]4C(=O)N[C@]5(P(=O)(O)Cc6c(F)cccc6F)C[C@H]5CCCCCCC[C@H](NC(=O)OC5CCCC5)C(=O)N4C3)cc(-c3csc(NC(C)C)n3)nc2c1Cl [Compound 2, (2R,6S,13aR,14aS,16aS)-2-(8-chloro-2-(2-(isopropylamino)thiazol-4-yl)-7-methoxyquinolin-4-yloxy)-6-(cyclopentyloxycarbonylamino)-5,16-dioxooctadecahydrocyclopropa[e]pyrrolo[1,2-a][1,4]diazacyclopentadecin-14a-yl(2,6-diflurobenzyl)phosphinic acid] | – | – | 11 ± 3 | – | 5 |
| CC[C@@H]1C[C@]1(NC(=O)[C@@H]1C[C@@H](Oc2cc(-c3csc(NC(C)C)n3)nc3c(Cl)c(OCCN4CCOCC4)ccc23)CN1C(=O)[C@@H](NC(=O)O[C@@H]1C[C@@H]2C[C@@H]2C1)C(C)(C)C)C(=O)O [Compound 3] | – | – | – | 2.3 ± 2.6 | 3 ± 1.2 |
